# Test: Oxidation in air / reduction with dithionite followed by 1H NMR
# Assay type: physicochemical
substance,measurement,value
"cobalt (II) complex of 2,2′-(1,7-dioxa-4,10-diazacyclododecane-4,10-diyl)diacetamide chloride [[Co(NODA)]^2+]",stability towards oxidation in air (in words),air-stable

# — patent US10960088B2, “Macrocycles, cobalt and iron complexes of same, and methods of making and using same” (The Research Foundation for The State University of New York, priority 2013, dated 2021)
